Reference: the NIST ThermoML archive (doi:10.1016/j.jct.2016.07.017)
± gives the expanded uncertainty stated by the source.

Test: activity coefficient (dimensionless); of the first substance listed, at infinite dilution; xn = mol fraction of the nth substance listed
Details: 101.33 kPa, Liquid, Chromatography, x1 = 0

CCCCOCCCC [dibutyl ether] + CC[N+](C)(CC)CCOC.O=S(=O)([N-]S(=O)(=O)C(F)(F)F)C(F)(F)F
activity coefficient (318.15 K): 15.1 ± 1.3
activity coefficient (328.15 K): 14.2 ± 1.2
activity coefficient (338.15 K): 13.4 ± 1.2
activity coefficient (348.15 K): 12.6 ± 1.1
activity coefficient (358.15 K): 12 ± 1
